Test results from ChEMBL document CHEMBL1124741, “Probes for narcotic receptor mediated phenomena. 17. Synthesis and evaluation of a series of trans-3,4-dichloro-N-methyl-N-[2-(1-pyrrolidinyl)cyclohexyl]benzeneacet amide (U50,488) related isothiocyanate derivatives as opioid receptor affinity ligands” (1990).

By UniProt entry, the sequences of proteins in these tests, tags left out.
UniProt P41144, whole entry: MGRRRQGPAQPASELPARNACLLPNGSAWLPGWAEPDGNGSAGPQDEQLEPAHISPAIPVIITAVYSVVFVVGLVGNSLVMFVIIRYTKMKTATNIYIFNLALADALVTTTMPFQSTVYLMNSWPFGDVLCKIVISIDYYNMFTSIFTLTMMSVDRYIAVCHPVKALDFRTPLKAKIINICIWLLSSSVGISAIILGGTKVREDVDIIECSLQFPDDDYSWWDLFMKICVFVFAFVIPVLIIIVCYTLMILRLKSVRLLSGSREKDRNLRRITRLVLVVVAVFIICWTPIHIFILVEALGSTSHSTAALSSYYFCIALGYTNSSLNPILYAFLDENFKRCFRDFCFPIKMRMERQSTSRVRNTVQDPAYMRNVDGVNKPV
UniProt P33535, whole entry: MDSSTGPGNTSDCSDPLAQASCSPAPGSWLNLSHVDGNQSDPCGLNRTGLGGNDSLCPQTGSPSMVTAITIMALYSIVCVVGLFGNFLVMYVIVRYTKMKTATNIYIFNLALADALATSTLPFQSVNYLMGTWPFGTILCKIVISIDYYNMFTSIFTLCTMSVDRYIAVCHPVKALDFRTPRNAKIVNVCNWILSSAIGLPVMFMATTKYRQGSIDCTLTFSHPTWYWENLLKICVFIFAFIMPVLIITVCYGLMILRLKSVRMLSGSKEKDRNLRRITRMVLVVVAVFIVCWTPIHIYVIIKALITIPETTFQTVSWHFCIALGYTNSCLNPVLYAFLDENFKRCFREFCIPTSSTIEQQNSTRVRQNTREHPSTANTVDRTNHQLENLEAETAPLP
UniProt P34975, whole entry: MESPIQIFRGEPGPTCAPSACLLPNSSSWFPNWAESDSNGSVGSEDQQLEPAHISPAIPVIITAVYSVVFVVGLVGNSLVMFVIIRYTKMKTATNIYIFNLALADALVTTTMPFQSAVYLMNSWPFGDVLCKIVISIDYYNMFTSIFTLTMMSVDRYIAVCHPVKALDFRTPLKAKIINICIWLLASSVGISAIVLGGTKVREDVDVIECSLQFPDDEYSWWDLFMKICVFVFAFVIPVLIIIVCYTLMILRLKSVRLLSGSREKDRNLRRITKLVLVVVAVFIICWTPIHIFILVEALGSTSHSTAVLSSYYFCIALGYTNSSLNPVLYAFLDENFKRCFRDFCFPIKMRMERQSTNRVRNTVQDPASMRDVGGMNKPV
UniProt P33533, whole entry: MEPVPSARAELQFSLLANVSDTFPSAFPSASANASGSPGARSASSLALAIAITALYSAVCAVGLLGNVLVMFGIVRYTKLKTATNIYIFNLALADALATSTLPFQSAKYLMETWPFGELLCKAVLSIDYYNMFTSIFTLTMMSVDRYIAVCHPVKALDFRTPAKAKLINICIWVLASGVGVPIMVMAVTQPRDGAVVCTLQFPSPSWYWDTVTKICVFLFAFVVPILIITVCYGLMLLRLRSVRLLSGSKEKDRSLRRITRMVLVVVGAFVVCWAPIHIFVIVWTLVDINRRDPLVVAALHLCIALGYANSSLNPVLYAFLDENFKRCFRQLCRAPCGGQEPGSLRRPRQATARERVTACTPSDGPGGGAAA

Tests used:
[1] = biological target: Kappa-type opioid receptor (Cavia porcellus) (UniProt P41144); assay: In vitro inhibition of [3H]U-69593 binding to Opioid receptor kappa 1 of guinea pig brain.; details: concentration not given here
[2] = biological target: Mu-type opioid receptor (Rattus norvegicus) (UniProt P33535); assay: In vitro inhibitory activity against Opioid receptor mu 1 of rat brain membrane using [3H]FOXY as radioligand.; details: concentration not given here
[3] = biological target: Kappa-type opioid receptor (Cavia porcellus) (UniProt P41144); assay: In vitro inhibitory activity against Opioid receptor kappa 1 of guinea pig brain using [3H]-BREM as radioligand; details: concentration not given here
[4] = biological target: Kappa-type opioid receptor (Rattus norvegicus) (UniProt P34975); assay: In vitro inhibitory activity against Opioid receptor kappa 1 of rat brain membrane using [3H]BREM as radioligand.; details: concentration not given here
[5] = biological target: Delta-type opioid receptor (Rattus norvegicus) (UniProt P33533); assay: In vitro inhibitory activity against Opioid receptor delta 1 of rat brain membrane using [3H]DADLE as radioligand.; details: concentration not given here
[6] = biological target: Kappa-type opioid receptor (Cavia porcellus) (UniProt P41144); assay: Inhibitory activity against kOpioid receptor kappa 1 of guinea pig brain using [3H]U-69593 expressed as percent reduction in binding of the control at 1 uM
[7] = biological target: Delta-type opioid receptor (Rattus norvegicus) (UniProt P33533); assay: Inhibitory activity against dOpioid receptor delta 1 of rat brain membrane using [3H]DADLE expressed as percent reduction in binding of the control at 1 uM
[8] = biological target: Mu-type opioid receptor (Rattus norvegicus) (UniProt P33535); assay: Inhibitory activity against Opioid receptor mu 1 of rat brain membrane using [3H]FOXY expressed as reduction in binding of control value at 1 uM
[9] = biological target: Kappa-type opioid receptor (Cavia porcellus) (UniProt P41144); assay: In vitro inhibitory activity against Opioid receptor kappa 1 of rat brain membrane using [3H]-BREM as radioligand.
[10] = biological target: Kappa-type opioid receptor (Cavia porcellus) (UniProt P41144); assay: In vivo binding affinity of [3H]U-69593 to Opioid receptor kappa 1 after intracerebroventricular injection ( 100 ug of compound dissolved in 10 uL of Dimethyl sulfoxide ) in guinea pig brain
[11] = biological target: Kappa-type opioid receptor (Cavia porcellus) (UniProt P41144); assay: In vivo binding affinity of [3H]bremazocine to Opioid receptor kappa 1 after intracerebroventricular injection ( 100 ug of compound dissolved in 10 uL of Dimethyl sulfoxide ) in guinea pig brain

| Compound | inhibition [1] | inhibition [2] | inhibition [3] | inhibition [4] | inhibition [5] | also measured |
| --- | --- | --- | --- | --- | --- | --- |
| CN(C(=O)Cc1ccccc1N)[C@H]1CCCC[C@@H]1N1CCCC1 | 96.6% | – | – | – | – | – |
| CN(C(=O)Cc1cccc(N=C=S)c1)[C@H]1CCCC[C@@H]1N1CCCC1 | < 49.6% | 107% | 102% | 93% | < 82.4% | Reduction [6]: 76.7%; Reduction [7]: 42.9% |
| CN(C(=O)Cc1ccccc1N)[C@@H]1CCCC[C@H]1N1CCCC1 | 95% | – | – | – | – | – |
| CN(C(=O)Cc1cccc(N)c1)[C@H]1CCCC[C@@H]1N1CCCC1 | 86.8% | – | – | – | – | – |
| CN(C(=O)Cc1ccc(N=C=S)cc1)[C@@H]1CCCC[C@H]1N1CCCC1 | 94.7% | 124% | 108% | 87.6% | 113% | – |
| CN(C(=O)Cc1ccccc1N=S)[C@@H]1CCCC[C@H]1N1CCCC1 | 95.9% | < 69% | 108% | 91.9% | < 89% | Reduction [8]: 69% |
| CN(C(=O)Cc1cccc(N)c1)[C@@H]1CCCC[C@H]1N1CCCC1 | 110% | – | – | – | – | – |
| CN(C(=O)Cc1ccc(N)cc1)[C@@H]1CCCC[C@H]1N1CCCC1 | 94.6% | – | – | – | – | – |
| CN(C(=O)Cc1ccccc1N=S)[C@H]1CCCC[C@@H]1N1CCCC1 | 11.2% | 119% | 97.6% | 98.1% | 100% | Specific binding [9]: 167 fM/mg; Specific binding [10]: 12.3 fM/mg; Reduction [11]: 72.2% |
| CN(C(=O)Cc1ccc(N=C=S)cc1)[C@H]1CCCC[C@@H]1N1CCCC1 | < 70.4% | 109% | 92.1% | < 79.7% | < 42.9% | – |
| CN(C(=O)Cc1cccc(N=C=S)c1)[C@@H]1CCCC[C@H]1N1CCCC1 | 93.6% | 104% | 110% | 97.1% | 92.3% | – |
| CN(C(=O)Cc1ccc(N)cc1)[C@H]1CCCC[C@@H]1N1CCCC1 | 88% | – | – | – | – | – |
